Data published in PubChem BioAssay AID504937 (National Center for Advancing Translational Sciences (NCATS), 2011).
The entries are a selection whose mix differs from that of the whole data set. Active and inactive are the calls of the source. Calls come from the whole dose curve; as a rule, active = well fitted inhibition curve with a large enough effect; inconclusive = small, poorly fitted or top-dose-only effect; inactive = no such curve, though single readings can be large or run the other way.

Amino acid sequences for entries named in this document (tags omitted). Residues count along the entry.
UniProt P17405, 47-631 limits assumed: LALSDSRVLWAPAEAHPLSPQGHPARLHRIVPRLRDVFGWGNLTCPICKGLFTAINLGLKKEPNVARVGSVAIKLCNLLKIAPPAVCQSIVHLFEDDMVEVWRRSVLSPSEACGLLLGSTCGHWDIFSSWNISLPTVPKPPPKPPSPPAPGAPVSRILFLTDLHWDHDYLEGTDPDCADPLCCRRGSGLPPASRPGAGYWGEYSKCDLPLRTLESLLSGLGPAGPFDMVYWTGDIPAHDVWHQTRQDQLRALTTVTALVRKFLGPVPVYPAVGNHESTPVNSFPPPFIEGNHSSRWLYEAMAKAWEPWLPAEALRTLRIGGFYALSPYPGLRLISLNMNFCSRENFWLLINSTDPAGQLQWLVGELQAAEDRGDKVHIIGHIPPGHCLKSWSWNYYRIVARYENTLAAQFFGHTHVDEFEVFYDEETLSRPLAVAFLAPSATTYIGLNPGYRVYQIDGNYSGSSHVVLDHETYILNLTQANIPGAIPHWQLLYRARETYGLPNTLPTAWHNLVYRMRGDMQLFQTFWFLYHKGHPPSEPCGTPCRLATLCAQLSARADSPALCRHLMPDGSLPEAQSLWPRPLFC

These molecules were tested against Sphingomyelin phosphodiesterase (Homo sapiens) (UniProt P17405) (assay: Inhibitors of Secretory Acid Sphingomyelinase (S-ASM): qHTS). Conditions: placental ASM, HMU-PC fluorogenic substrate (series up to 57.5 µM), 60 min; at 57.5 µM (top of the series).

Row | SMILES | activity change, negative = inhibition
1 | O=[N+]([O-])c1cc([N+](=O)[O-])c(Nc2ccccn2)c([N+](=O)[O-])c1 | inactive: -7.64%
